# Measured values: US20240299303A1, “NANOSTRUCTURE OR MICROSTRUCTURE AND METHOD FOR PRODUCING SAME” (The University of Tokyo, priority 2021, published 2024)
# Key:
# [1] = Introduction of molecules into porous nanosheet crosslinked body (UV-visible, supernatant); type: physicochemical; details: adsorption from aqueous dispersion; Example 9
# [2] = Introduction of molecules into crosslinked body of porous microstructural body (UV-visible, supernatant); type: physicochemical; details: adsorption from aqueous dispersion; Example 10
# Protocol: A low-molecular weight compound was added, and caused to adsorb, to the aqueous dispersion of the porous γ-PPG4k-Plate crosslinked body, and then the porous γ-PPG4k-Plate crosslinked body was sedimented by centrifugation. The concentration of the low-molecular weight compound present in the supernatant liquid obtained at that time was determined by a UV-visible spectral method. Thus, the amount of the low-molecular weight compound adsorbing to the porous γ-PPG4k-Plate crosslinked body was determined. The ratio of the weight of the low-molecular weight compound to the total sum of the weights of the low-molecular weight compound and the porous γ-PPG4k-Plate crosslinked body was as follows: 0.7 wt % in the case of catechin; 0.6 wt % in the case of coumarin; and 0.9 wt % in the case of linoleic acid.
substance,measurement,setting,value
catechin,ratio of the weight of the low-molecular weight compound to the total sum of the weights of the compound and the porous γ-plu108-NS crosslinked body,[1],0.6 wt %
same,ratio of the weight of the low-molecular weight compound to the total sum of the weights of the compound and the porous γ-PPG4k-Plate crosslinked body,[2],0.7 wt %
